Compound activity from PubChem.
An excerpt weighted towards active compounds, which were near 16% of everything screened.
TDP1 inh – inhibitors of human tyrosyl-DNA phosphodiesterase TDP1; recombinant TDP1, AlphaScreen DNA substrate cleavage; AID 485290; 350,000 tested, 0.28% active; Q9NUW8; Potency, µM (series often up to 130 µM), for the others: at the top dose activity change, negative = inhibition, most hits filed as inhibitors; also: potency is read from the fitted curve at half-maximal effect; % is scaled to controls: 0 for no effect and ±100 for the full control effect; nearly all actives have a fitted effect of over 40% in size
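Signal: AlphaScreen proximity between streptavidin donor and anti-FITC acceptor beads on intact substrate. Reaction: Tdp1 1 nM, substrate 15 nM final, 5 min RT after 15 min compound preincubation.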
TDP1 cell CPT – DT40-hTDP1 cell growth loss with CPT | Potency, µM (top dose mostly 46.2 µM), for the others: at the top dose activity change, negative = growth inhibition, hits mostly inhibitors | AID 686979 | chicken DT40 Tdp1-/-;hTDP1 cells + 20 nM CPT, ATP luminescence, 48 h | 420,000 tested, 12% active; also: potency is read from the fitted curve at half-maximal effect; % is scaled to controls: 0 for no effect and ±100 for the full control effect; nearly all actives have a fitted effect of over 55% in size
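Chicken DT40 Tdp1-/- cells stably complemented with human TDP1 were seeded at 400 cells/well in medium containing 20 nM camptothecin, exposed to pin-transferred compounds, and grown at 37 °C for at least 48 hr. Viability was read as ATP luminescence.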
DT40 TDP1 no CPT – qHTS for Inhibitors of human tyrosyl-DNA phosphodiesterase 1 (TDP1): qHTS in cells in absence of CPT; DT40 Tdp1-/- hTDP1 cells, no CPT, ATP luminescence, 48 h; Potency, µM (top dose mostly 46.2 µM), without a hit: top-dose activity change, negative = growth inhibition, most hits filed as inhibitors; 420,000 tested, 15% active; also: potency is read from the fitted curve at half-maximal effect; % is scaled to controls: 0 for no effect and ±100 for the full control effect; nearly all actives have a fitted effect of over 55% in size
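A cellular qHTS used chicken DT40 cells lacking endogenous Tdp1 but carrying stably transfected human TDP1. Compounds were applied without camptothecin, and cell growth kinetics were judged by ATP-dependent luminescence after ≥48 hr.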
uPA generation – blocks generation of uPA at the cell surface | cell surface uPA generation assay, qHTS | Potency, µM (highest dose often 38.3 µM), inactives show at the highest dose activity change, negative = inhibition, most hits filed as inhibitors | 330,000 tested, 0.31% active | AID 540303; active = well fitted inhibition curve with a large enough effect; inconclusive = small, poorly fitted or top-dose-only effect; inactive = no such curve, though single readings can be large or run the other way; tested in mouse RAW 264.7 cells; also: potency is read from the fitted curve at half-maximal effect; % is scaled to controls: 0 for no effect and ±100 for the full control effect; nearly all actives have a fitted effect of over 55% in size
miR-21 reporter – raises the signal of a miR-21 reporter | HeLa miR-21 FLuc reporter, luciferase, 48 h | Potency, µM (highest dose often 38.3 µM), inactives show at the highest dose reporter change, positive = more light | 340,000 tested, under 10 active | AID 2288; active = well fitted rising curve with a large enough effect; inconclusive = small, poorly fitted or top-dose-only effect; inactive = no such curve, though single readings can be large or run the other way;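 note: % of control where 0% means no effect; miR-21 action dims this reporter so a rising signal means less miR-21 action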
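Using DMEM plus 10% FBS, HeLa miR-21-FLuc cells are incubated with test compounds (final up to about 40uM) for 48 hours; firefly luciferase signal is then imaged following reagent-mediated lysis.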
* hit, by the source's call. Unless noted, calls follow the shape of the dose curve; as a rule, active = well fitted curve in the direction sought with a large enough effect; inconclusive = small, poorly fitted or top-dose-only effect, or another doubt; inactive = no such curve, though single readings can be large; an effect the other way counts as inactive or inconclusive.

The first two compounds as a preview:
`Cc1nc2cncnc2n(Cc2ccccc2Cl)c1=O` gave TDP1 cell CPT -16% and DT40 TDP1 no CPT -1%.
O=c1cnc2cncnc2n1Cc1ccccc1Cl was read as TDP1 cell CPT 2.3µM* and DT40 TDP1 no CPT 1.3µM*.

The whole of this part, previewed entries included:
`Cc1nc2cncnc2n(Cc2ccccc2Cl)c1=O` gave TDP1 cell CPT -16% and DT40 TDP1 no CPT -1%.
O=c1cnc2cncnc2n1Cc1ccccc1Cl was read as TDP1 cell CPT 2.3µM* and DT40 TDP1 no CPT 1.3µM*.
Screening O=c1cnc2cncnc2n1Cc1ccccc1 returned TDP1 cell CPT 5.8µM* and DT40 TDP1 no CPT 7.3µM*.
CCOc1ccccc1C(=O)Nc1nnc(SCC(=O)N2CCCC2)s1 was read as TDP1 cell CPT -29% and DT40 TDP1 no CPT inconclusive.
O=S(=O)(NCC1CCN(Cc2ccccc2)CC1)c1ccccc1C(F)(F)F was read as TDP1 inh 6%, TDP1 cell CPT 1%, DT40 TDP1 no CPT -9%, uPA generation -5% and miR-21 reporter -1%.
For C=CCn1c(=N)n(CC(=O)c2cccc([N+](=O)[O-])c2)c2ccccc21 the results were TDP1 inh 1%, TDP1 cell CPT inconclusive, DT40 TDP1 no CPT inconclusive, uPA generation 0% and miR-21 reporter -20%.
For N=c1n(CC(=O)c2ccc([N+](=O)[O-])cc2)c2ccccc2n1Cc1ccccc1 the results were TDP1 inh 1%, TDP1 cell CPT 7.3µM*, DT40 TDP1 no CPT 5.8µM*, uPA generation 9% and miR-21 reporter -12%.
`CCOC(=O)Cn1c(=N)n(Cc2ccccc2)c2ccccc21` gave TDP1 inh 1%, TDP1 cell CPT -6%, DT40 TDP1 no CPT -25%, uPA generation 4% and miR-21 reporter -5%.
N=c1n(Cc2ccccc2)c2ccccc2n1CC(O)c1ccco1 (stereo not given) was read as TDP1 inh 3%, TDP1 cell CPT 21µM*, DT40 TDP1 no CPT 23µM*, uPA generation -2% and miR-21 reporter 2%.
`N=c1n(CC(=O)c2ccc([N+](=O)[O-])cc2)c2ccccc2n1Cc1ccccc1Cl` gave TDP1 inh 1%, TDP1 cell CPT 2.9µM*, DT40 TDP1 no CPT 2.9µM*, uPA generation 3% and miR-21 reporter 0%.
`N=c1n(CCN2CCCCC2)c2ccccc2n1CC(=O)c1cccc([N+](=O)[O-])c1` gave TDP1 cell CPT inconclusive, DT40 TDP1 no CPT 18µM*, uPA generation -8% and miR-21 reporter -11%.
`CCn1c(=N)n(CC(O)c2ccco2)c2ccccc21` (stereo not given) gave TDP1 inh -3%, TDP1 cell CPT -7%, DT40 TDP1 no CPT -15% and miR-21 reporter -8%.
`CN(Cc1c(C(=O)N/N=C/c2cccc(Cl)c2)nnn1-c1nonc1N)c1ccccc1` gave TDP1 inh 3%, TDP1 cell CPT 5%, DT40 TDP1 no CPT 15%, uPA generation -9% and miR-21 reporter -8%.
`Cc1ccccc1Cn1c(=N)n(CC(=O)c2ccco2)c2ccccc21` gave TDP1 inh 3%, TDP1 cell CPT 23µM*, DT40 TDP1 no CPT 16µM*, uPA generation -6% and miR-21 reporter 9%.
`N=c1n(CCO)c2ccccc2n1CCOc1ccccc1` gave TDP1 inh 4%, TDP1 cell CPT inconclusive, DT40 TDP1 no CPT inconclusive, uPA generation -3% and miR-21 reporter -1%.
`N=c1n(CC(=O)c2ccc(Br)cc2)c2ccccc2n1Cc1ccccc1` gave TDP1 inh -4%, TDP1 cell CPT 5.2µM*, DT40 TDP1 no CPT 6.5µM* and uPA generation 12%.
`N=c1n(Cc2ccccc2)c2ccccc2n1Cc1ccccc1` gave TDP1 inh -10%, TDP1 cell CPT 18µM*, DT40 TDP1 no CPT 21µM*, uPA generation -10% and miR-21 reporter 0%.
Screening N=c1n(CCO)c2ccccc2n1Cc1ccc(Cl)cc1 returned TDP1 inh 5%, TDP1 cell CPT 26µM*, DT40 TDP1 no CPT 16µM*, uPA generation -2% and miR-21 reporter 4%.
Screening O=C(CN1CCN(Cc2ccccc2)CC1)c1ccc(Br)cc1 returned TDP1 inh 6%, TDP1 cell CPT inconclusive, DT40 TDP1 no CPT -10% and miR-21 reporter -2%.
